In PubChem BioAssay AID652017 (The Scripps Research Institute Molecular Screening Center, 2013):
The entries are a selection whose mix differs from that of the whole data set. Calls of active or inactive are those of the source. Rule as the data show it: active = activation above about 7.8%; inactive = the rest.

Experiment: SMARCA2 (BRM) function activators, primary screen, cell-based, luminescence, high throughput (AID 652017);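 also: 0% = vehicle wells and 100% = reference activator wells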
Settings: MG213 cells, MMTV-luciferase reporter, dexamethasone, overnight; at 9.1 µM; active compounds read high
In the case of CP(=O)(Nc1ccccc1Br)Oc1ccccc1 (stereo unspecified), the activation is reported as inactive: -2.3%.
